The list shows a part of the results, in another mix than the full data. Some results for these compounds are left out of this collection, so the calls shown say nothing about other tests. Activity calls are given as the source filed them. Rule as the data show it: active = inhibition above about 17%; inactive = the rest.

Chains of the proteins cited; added tags and fusions are not shown.
UniProt P53779, whole entry: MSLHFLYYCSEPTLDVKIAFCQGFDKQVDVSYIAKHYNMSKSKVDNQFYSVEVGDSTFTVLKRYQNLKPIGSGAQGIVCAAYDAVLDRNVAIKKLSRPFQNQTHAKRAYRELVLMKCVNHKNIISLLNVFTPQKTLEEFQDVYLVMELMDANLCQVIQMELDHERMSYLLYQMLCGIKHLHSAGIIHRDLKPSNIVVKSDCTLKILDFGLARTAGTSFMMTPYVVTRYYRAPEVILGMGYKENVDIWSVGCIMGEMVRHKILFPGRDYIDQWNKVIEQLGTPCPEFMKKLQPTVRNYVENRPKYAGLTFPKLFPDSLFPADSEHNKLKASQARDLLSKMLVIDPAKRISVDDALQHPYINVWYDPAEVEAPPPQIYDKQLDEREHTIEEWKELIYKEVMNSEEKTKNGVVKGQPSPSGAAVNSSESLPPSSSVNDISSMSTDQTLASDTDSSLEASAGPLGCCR

This note sets out measurements from PubChem BioAssay AID746 (The Scripps Research Institute Molecular Screening Center, 2007).

In this assay the target is Mitogen-activated protein kinase 10 (Homo sapiens) (UniProt P53779). Nature of the assay: JNK3 kinase activity inhibitors, primary screen, biochemical, human, purified enzyme (AID 746).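 Also: 0% = DMSO and 100% = reference inhibitor.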 The settings on record: HTS, at 8 µM, hits give high values.
As usually defined, the inhibition is the drop in the measured response relative to a control, in per cent. Regarding `O=C(OC1CN2CCC1CC2)C(CO)(c1ccccc1)c1ccccc1` (configuration not stated), the inhibition was inactive: 1.1%.

Consider `CN(C)c1cccc(C(=O)NCC2(N(C)C)CCCCC2)c1`, for which the inhibition was inactive: -8.6%.
